Test results published in US8247531B2, “Mutant epidermal growth factor polypeptides, nucleic acids, and uses therefor” (priority 2006, dated 2012).

Columns and labels:
EGFR = EGFR (Homo sapiens, UniProt P00533); experiment: EGFR phosphorylation (Tyr1173 phospho-EGFR/total EGFR) by Western blot in NR6 fibroblast cells; type: cell-based; details: 1 min at 37° C., Tyr1173 phospho-EGFR
Procedure: EGFR phosphorylation in the presence of wt EGF and mutant clone 28 was evaluated. Cells were lysed and levels of Tyr1173 phospho-EGFR were measured by Western blot, probing with a phospho-specific rabbit polyclonal antibody (Santa Cruz Biotech). Blots were stripped and reprobed with rabbit polyclonal EGFR to determine the total amount of EGFR protein present. Westerns were developed using enhanced chemiluminescence, and band density of was quantitated using a Bio-Rad Fluor-S Imager. Data shown is the ratio of phosphorylated EGFR/total EGFR.

[1] = target: T1, EGFR on NR6 fibroblast cells (Homo sapiens, UniProt P00533); experiment: Competition binding of soluble EGF to EGFR on NR6 fibroblast cells (flow cytometry, Alexa-488 labeled wt EGF)
T1 construct: expressed in transfected cells; host or cells: NR6 fibroblast cells
Procedure: (§1) Fluorescence intensity of cell surface labeling was measured by flow cytometry.
as §1
This mutant was tested using one of the binding assays described herein in which binding to EGFR expressed on cells is measured. […] Fluorescence intensity of cell surface labeling was measured by flow cytometry.

Sequence: NSDSECPLSHDGYCLHGGVCMYIKAVDRYACNCVVGYIGERCQYRDLTWWGPR [clone 28]
- receptor phosphorylation (ratio of phosphorylated EGFR/total EGFR) (EGFR): increases receptor phosphorylation
- increase in affinity over wt EGF ([1]; competition binding): 5 to 10 fold
- Kd ([1]; competition with Alexa-488 labeled wt EGF, 2 hr at 4° C., read-out: Dissociation constants at half-maximal values): 0.26 ± 0.03 nM
